Biological target: Glutamate receptor ionotropic, NMDA 1 (Homo sapiens, UniProt Q05586)

Work on N[C@H](CNC(=O)c1cc2nccc(Br)c2s1)C(=O)O yielded a Ki of 63 nM.

— ChEMBL document CHEMBL5729155, “Prodrugs of modulators of the NMDA receptor” (2022)
